Laboratory results as given in patent US20190192521A1, “Methods of Treating Arid1A-Mutated Cancers With HDAC6 Inhibitors and EZH2 Inhibitors” (The Wistar Institute of Anatomy and Biology, priority 2016, published 2019).

Target: T1, human HDAC6 (Homo sapiens, UniProt Q9UBN7)
T1 construct: made in house
T1 sequence (Q9UBN7 1-1215): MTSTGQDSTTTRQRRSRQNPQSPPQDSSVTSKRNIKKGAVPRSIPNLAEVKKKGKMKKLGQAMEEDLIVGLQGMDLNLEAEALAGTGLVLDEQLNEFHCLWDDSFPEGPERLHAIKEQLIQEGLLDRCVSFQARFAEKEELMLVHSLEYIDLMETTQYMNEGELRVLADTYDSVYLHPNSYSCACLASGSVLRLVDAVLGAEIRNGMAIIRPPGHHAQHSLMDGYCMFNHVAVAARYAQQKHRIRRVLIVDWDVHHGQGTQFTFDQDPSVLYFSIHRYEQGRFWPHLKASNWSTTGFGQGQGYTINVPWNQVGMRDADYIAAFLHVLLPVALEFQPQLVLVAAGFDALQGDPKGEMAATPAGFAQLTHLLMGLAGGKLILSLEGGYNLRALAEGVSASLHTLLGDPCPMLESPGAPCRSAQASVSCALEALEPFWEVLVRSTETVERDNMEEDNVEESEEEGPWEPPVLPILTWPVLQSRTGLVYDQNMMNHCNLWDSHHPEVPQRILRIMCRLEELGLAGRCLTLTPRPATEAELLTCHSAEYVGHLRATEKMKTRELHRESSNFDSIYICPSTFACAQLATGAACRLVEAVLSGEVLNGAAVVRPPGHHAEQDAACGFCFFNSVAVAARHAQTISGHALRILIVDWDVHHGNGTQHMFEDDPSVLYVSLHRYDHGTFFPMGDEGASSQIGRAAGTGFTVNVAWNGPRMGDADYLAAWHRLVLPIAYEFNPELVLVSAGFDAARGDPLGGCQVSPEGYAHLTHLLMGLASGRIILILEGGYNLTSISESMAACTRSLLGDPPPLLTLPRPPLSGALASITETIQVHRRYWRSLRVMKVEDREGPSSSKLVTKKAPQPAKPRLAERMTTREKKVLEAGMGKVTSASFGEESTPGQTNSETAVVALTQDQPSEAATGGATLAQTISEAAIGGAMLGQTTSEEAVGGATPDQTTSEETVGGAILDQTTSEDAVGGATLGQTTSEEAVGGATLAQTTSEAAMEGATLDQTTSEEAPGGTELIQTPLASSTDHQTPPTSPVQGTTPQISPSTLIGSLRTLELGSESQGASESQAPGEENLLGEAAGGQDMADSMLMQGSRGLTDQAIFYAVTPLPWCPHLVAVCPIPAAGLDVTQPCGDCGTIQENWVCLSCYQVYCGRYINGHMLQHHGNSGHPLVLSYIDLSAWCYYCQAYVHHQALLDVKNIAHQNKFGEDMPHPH
Assay: in vitro biochemical HDAC6 deacetylation assay (LC-MS)
Details: 10 μM inhibitor, 0.05 μM HDAC6, 100 μM substrate
Description: Deacetylation reactions were detected by discontinuous liquid chromatography-mass spectrometry (LC-MS). The negative control assay was run in the presence of the HDAC6 inhibitor rocilinostat (ACY1215). All assays were performed in triplicates.
In vitro biochemical HDAC6 deacetylation assays were performed as follows. Activity assay with human HDAC6 was based on a discontinuous liquid chromatography-mass spectrometry (LC-MS) assay as reported in Hai and Christianson, 2016. Briefly, 0.05 μM of HDAC6 was incubated with 100 μM of substrate Ac-LHSGTAK(ac)SVT-COOH in HEPES buffer [20 mM HEPES (pH 7.5), 100 mM NaCl, 5 mM KCl, 1 mM MgCl2] for 20 min at room temperature, and the reaction was quenched by the addition of acetonitrile (equal volume to the reaction solution). The deacetylation reaction mixtures were detected by (LC-MS) using a Waters SQD equipped with an Acquity UPLC (Waters, Milford, Mass., USA) and quantified by using the standard curves generated from the mass signals of the corresponding deacetylated synthetic peptide (Ac-[…]-COOH). The assay was run in the presence of 10 μM of HDAC6 specific inhibitor ACY-1215 as a negative control. All the assays were performed in triplicates. The peptide was custom synthesized by Genscript. The human HDAC6 construct was expressed and purified as described in Hai and Christianson, 2016.

## O=C(CCCCCCNC(=O)c1cnc(N(c2ccccc2)c2ccccc2)nc1)NO [rocilinostat, 2-(diphenylamino)-N-(7-(hydroxyamino)-7-oxoheptyl)pyrimidine-5-carboxamide]
  inhibition of HDAC6 deacetylation of p53K120Ac peptide: prevented HDAC6 from removing the p53K120Ac modification
Listed as ACY1215
  inhibition of HDAC6 deacetylation of p53K120Ac peptide: blocked this activity
